Source: paper PMC11783601, “Analogue-Sensitive Inhibition of Histone Demethylases Uncovers Member-Specific Function in Ribosomal Protein Synthesis” (Journal of the American Chemical Society, 2025)
Like-named read-outs stand apart in the source and are kept apart here.

Molecular target: T1, KDM4A-F185A (Homo sapiens, UniProt O75164, F185A)
T1 sequence (O75164 142-308 F185A limits assumed): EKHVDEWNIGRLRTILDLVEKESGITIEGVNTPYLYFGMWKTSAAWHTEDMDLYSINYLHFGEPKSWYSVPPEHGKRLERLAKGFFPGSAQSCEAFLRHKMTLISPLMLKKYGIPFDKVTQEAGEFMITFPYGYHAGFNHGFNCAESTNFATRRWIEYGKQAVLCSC
Details: H3K9me3 demethylation, saturating peptide, 2OG as cofactor

- kcat (listed as 2OG): 0.19 ± 0.01 min^–1
- kcat (listed as 2OG 1): 0.186±0.008 min^–1
SMILES: O=C(O)CCC(=O)C(=O)O [compound 1, 2-oxoglutarate]
